# From PubChem BioAssay AID493091 (Sanford-Burnham Center for Chemical Genomics, 2011)
# The chains behind the UniProt entries cited, without tags or fusion partners. Residues count along the entry.
# UniProt Q9GZU7, 76-261 limits assumed: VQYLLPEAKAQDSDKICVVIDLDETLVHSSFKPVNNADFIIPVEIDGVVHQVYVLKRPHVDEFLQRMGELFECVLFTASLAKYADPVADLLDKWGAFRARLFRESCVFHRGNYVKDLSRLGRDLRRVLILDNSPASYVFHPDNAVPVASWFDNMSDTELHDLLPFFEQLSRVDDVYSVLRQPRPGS
# The list shows a part of the results, in another mix than the full data. Calls of active or inactive are those of the source.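 The calls were made as follows: active = inhibition above about 50% at 20 µM (limit read from the data); inactive = the rest.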
# Target: Carboxy-terminal domain RNA polymerase II polypeptide A small phosphatase 1 (Homo sapiens) (UniProt Q9GZU7)
# Test: Scp-1 phosphatase inhibitors, primary screen, biochemical, colorimetric, uHTS (AID 493091);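 also: plate controls were DMSO wells with enzyme for no effect and wells lacking enzyme for full effect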
# Settings: Recombinant Scp1, phosphopeptide, malachite green phosphate absorbance; at 20 µM; hits give high values
row,Structure (SMILES),inhibition
1,CCC(=O)N(c1ccccc1)C1(COC)CCN(CCc2cccs2)CC1,inactive: -3.18%
2,CCC(=O)N(c1ccccc1)C1(COC)CCN(CCn2nnn(CC)c2=O)CC1,inactive: -3.18%
